Results: patent US20250051340A1, “TRIAZOLONE DERIVATIVE SALT AS NEUTROPHIL ELASTASE INHIBITOR” (CHIESI FARMACEUTICI S.P.A., priority 2021, published 2025)

Test: Head-out plethysmography (HOP) assay, lung function parameters
Settings: male Wistar rats, snout-only inhalation, dry powder

## (2-{5-Cyano-2-[(R)-6-methoxycarbonyl-7-methyl-3-oxo-8-(3-trifluoromethyl-phenyl)-2,3,5,8-tetrahydro-[1,2,4]triazolo[4,3-a]pyrimidin-5-yl]-phenyl}-ethyl)-trimethyl-ammonium propionate
0.6 mg/kg, vs vehicle (lactose)
  increase of respiratory rate, peak effect: 65%
6 mg/kg (high dose), vs vehicle (lactose)
  reduction of tidal volume, peak effect: 37%
High dose 6 mg/kg
  increase of PenH compared to vehicle: ~18 fold
Low and high dose, peak effect vs vehicle (lactose)
  % of Reduction of tidal volume: 37-65%
Low dose 0.6 mg/kg
  increase of PenH compared to vehicle: about 7 fold
